# Earlier results in US20050136043A1, “TGFbeta signaling inhibitors” (Ludwig Institute for Cancer Research, priority 2003, published 2005).
# Amino acid sequences for entries named in this document (tags omitted).
# UniProt Q16539, whole entry: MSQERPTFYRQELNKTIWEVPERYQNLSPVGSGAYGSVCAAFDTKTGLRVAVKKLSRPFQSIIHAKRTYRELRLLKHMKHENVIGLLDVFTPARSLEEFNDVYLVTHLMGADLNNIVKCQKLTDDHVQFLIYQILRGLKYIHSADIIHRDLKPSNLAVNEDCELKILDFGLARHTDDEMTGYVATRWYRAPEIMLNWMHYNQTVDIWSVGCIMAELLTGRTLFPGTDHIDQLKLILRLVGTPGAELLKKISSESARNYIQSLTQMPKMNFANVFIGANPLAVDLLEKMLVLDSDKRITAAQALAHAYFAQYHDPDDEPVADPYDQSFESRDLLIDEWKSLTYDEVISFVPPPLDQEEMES
# Target: p38 MAP (Homo sapiens, UniProt Q16539)
# Conditions: cited from earlier work
smiles,measurement,value
CCc1nc(-c2ccc(OC)cc2)[nH]c1-c1ccncc1 [SB202474],Effect on p38 kinase,does not affect
